Earlier results as cited in patent US20040253307A1.

Conditions: dependence on pH

## CCC(=O)N(c1ccccc1)C1CCN(CCc2ccccc2)CC1
  aqueous solubility: decreases sharply at a pH above 6

Some compounds may have been tested in ways that are not shown here.
